Assay results reported in BindingDB's records for doi:10.1016/0006-2952(93)90211-e (Mayo Foundation, 1993).

By UniProt entry, the sequences of proteins in these tests, tags left out. Where a name states a change or a piece, a line headed by the entry shows the natural chain unless it says otherwise.
UniProt P11229: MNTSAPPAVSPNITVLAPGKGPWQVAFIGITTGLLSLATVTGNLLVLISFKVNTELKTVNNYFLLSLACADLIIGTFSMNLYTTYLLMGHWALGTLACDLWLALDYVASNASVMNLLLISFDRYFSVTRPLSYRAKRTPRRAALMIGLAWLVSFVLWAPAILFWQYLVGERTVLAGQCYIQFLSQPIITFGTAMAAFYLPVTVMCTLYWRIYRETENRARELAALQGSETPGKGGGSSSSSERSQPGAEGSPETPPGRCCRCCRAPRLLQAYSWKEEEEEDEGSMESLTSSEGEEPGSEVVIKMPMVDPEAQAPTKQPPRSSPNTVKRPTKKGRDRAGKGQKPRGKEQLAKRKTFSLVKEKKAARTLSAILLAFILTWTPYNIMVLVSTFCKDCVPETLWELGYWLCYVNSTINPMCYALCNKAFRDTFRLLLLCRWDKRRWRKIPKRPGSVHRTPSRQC
UniProt P20309, whole entry: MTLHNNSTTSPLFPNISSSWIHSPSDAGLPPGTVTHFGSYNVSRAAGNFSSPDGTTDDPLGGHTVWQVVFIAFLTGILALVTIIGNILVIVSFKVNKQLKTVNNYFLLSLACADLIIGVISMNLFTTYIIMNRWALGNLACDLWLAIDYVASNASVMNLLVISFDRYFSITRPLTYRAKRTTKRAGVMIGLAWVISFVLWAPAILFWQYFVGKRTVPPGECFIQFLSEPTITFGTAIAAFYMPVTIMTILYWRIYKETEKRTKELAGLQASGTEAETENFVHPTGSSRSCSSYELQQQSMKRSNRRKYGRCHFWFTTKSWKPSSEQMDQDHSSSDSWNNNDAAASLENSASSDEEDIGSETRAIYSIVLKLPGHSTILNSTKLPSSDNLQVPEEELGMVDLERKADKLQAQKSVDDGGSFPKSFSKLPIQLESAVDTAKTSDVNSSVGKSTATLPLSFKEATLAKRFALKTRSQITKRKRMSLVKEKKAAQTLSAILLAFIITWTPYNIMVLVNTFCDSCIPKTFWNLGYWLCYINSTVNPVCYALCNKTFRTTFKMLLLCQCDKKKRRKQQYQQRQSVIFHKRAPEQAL

Tests used:
[1] = target: Muscarinic acetylcholine receptor M1 (Homo sapiens, UniProt P11229)
[2] = target: Muscarinic acetylcholine receptor M3 (Homo sapiens, UniProt P20309)

Row | Compound | Ki [1] [µM] | Ki [2] [µM]
1 | N[C@H]1CC[C@@H](c2ccc(Cl)c(Cl)c2)c2ccccc21 | 1.65 | 3.5
2 | CN(CCCN1c2ccccc2CCc2ccccc21)CC(=O)c1ccc(Cl)cc1 [CAS_23047-25-8] | 0.067 | 
3 | CCc1nn(CCCN2CCN(c3cccc(Cl)c3)CC2)c(=O)n1CC [NSC_40589] | > 10 | > 10
